Data: publication PMC6090556 (Neuron, 2018)

The chains behind the UniProt entries cited, without tags or fusion partners. Where a name states a change or a piece, a line headed by the entry shows the natural chain unless it says otherwise. Residues count along the entry.
UniProt Q00959, 23-1464: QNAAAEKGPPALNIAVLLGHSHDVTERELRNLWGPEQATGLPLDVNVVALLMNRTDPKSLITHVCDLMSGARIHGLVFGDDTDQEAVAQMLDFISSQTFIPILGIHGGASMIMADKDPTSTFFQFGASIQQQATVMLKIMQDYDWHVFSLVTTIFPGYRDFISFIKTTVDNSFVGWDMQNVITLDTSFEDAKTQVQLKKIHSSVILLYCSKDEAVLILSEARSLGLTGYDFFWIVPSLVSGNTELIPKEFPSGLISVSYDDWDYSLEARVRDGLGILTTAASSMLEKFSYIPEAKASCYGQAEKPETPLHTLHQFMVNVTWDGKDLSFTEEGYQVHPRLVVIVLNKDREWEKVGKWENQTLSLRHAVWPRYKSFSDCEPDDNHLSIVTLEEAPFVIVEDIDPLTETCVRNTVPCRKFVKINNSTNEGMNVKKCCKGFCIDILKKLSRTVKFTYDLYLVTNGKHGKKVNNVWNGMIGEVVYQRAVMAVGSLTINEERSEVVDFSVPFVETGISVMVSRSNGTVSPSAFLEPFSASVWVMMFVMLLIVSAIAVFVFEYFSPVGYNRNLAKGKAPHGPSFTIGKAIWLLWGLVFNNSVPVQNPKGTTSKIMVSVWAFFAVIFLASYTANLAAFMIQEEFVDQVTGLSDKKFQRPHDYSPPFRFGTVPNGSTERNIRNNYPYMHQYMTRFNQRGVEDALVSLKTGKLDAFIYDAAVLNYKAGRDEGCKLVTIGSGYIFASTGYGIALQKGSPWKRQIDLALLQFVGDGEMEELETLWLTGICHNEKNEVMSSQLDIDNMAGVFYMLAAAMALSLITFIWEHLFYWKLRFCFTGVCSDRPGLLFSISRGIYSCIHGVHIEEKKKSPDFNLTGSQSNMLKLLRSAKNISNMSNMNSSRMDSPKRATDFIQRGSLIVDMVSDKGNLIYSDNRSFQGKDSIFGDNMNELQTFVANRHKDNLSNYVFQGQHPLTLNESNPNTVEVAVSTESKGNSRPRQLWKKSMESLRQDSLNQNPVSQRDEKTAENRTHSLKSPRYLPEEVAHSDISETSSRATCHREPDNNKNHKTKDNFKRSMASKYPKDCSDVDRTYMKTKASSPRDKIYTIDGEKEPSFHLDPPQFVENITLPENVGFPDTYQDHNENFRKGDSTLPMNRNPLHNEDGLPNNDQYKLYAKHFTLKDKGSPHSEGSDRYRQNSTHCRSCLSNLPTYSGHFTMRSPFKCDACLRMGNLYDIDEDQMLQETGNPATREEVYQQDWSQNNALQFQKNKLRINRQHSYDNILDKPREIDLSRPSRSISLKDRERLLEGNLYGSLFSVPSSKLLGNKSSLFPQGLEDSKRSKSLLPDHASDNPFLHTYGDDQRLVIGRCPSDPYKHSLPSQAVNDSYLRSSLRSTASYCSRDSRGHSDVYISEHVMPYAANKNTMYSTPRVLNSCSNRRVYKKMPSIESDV
UniProt Q00961: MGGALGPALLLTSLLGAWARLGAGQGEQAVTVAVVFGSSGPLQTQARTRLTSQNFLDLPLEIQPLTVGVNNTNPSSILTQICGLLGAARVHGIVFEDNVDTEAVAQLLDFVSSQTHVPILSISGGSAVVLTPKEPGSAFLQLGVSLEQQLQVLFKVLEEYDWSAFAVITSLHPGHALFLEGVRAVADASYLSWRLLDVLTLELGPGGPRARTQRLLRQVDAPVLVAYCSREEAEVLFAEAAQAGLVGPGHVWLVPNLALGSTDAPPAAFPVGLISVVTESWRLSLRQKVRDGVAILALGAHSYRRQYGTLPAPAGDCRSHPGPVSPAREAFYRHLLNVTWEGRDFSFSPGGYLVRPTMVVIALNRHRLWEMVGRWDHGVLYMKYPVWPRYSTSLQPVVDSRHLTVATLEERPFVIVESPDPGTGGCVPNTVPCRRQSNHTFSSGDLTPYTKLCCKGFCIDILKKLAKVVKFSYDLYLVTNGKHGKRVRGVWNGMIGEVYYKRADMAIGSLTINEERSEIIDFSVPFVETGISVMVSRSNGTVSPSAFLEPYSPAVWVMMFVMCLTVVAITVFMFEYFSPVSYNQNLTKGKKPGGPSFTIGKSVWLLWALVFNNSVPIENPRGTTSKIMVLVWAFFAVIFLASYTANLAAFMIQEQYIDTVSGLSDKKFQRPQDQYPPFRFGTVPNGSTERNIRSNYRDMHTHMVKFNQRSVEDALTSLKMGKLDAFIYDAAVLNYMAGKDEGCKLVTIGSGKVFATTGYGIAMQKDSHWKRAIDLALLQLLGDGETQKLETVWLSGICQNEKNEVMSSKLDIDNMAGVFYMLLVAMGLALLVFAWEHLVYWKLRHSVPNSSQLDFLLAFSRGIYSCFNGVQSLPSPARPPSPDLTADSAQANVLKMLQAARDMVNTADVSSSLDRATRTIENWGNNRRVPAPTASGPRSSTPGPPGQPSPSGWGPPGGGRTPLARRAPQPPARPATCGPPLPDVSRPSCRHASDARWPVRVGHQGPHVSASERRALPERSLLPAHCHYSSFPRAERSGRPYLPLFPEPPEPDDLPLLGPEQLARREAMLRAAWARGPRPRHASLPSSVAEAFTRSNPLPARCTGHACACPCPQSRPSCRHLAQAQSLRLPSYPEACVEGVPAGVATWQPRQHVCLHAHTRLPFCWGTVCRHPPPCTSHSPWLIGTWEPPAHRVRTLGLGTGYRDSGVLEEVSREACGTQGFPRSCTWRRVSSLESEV

Columns and labels:
GluN1/GluN2AC1/GluN2CC2 [1] = target: T1, GluN1/GluN2AC1/GluN2CC2 (Rattus norvegicus, UniProt P35439+Q00959+Q00961, V839F); settings: 5 ms pulse of 1 mM glutamate, continuous 100 μM glycine, n=24
GluN1/GluN2AC1/GluN2CC2 [2] = target: T1, GluN1/GluN2AC1/GluN2CC2; experiment: Two-electrode voltage-clamp recordings in Xenopus oocytes

For `N[C@@H](CCC(=O)O)C(=O)O` [Glutamate], the “glutamate deactivation time constant” value (GluN1/GluN2AC1/GluN2CC2 [1]) was 301 ± 15 ms.
For `[Zn+2]` [Zn^2+], the “GluN2AC1/GluN2CC2 fitted response in saturating Zn2+ as percent of control” value (GluN1/GluN2AC1/GluN2CC2 [2]; pH 6.8, mean ± SEM) was 23±1.7 ^c %, the “GluN2AC1/GluN2CC2 fitted response in saturating Zn2+ as percent of control” value (GluN1/GluN2AC1/GluN2CC2 [2]; pH 7.3, mean ± SEM) was 55±1.0 ^c % and the “Zn2+ inhibition at alkaline pH” value (GluN1/GluN2AC1/GluN2CC2 [2]; pH 8.4, glutamate and glycine 50 μM, −20 mV, up to 300 nM Zn2+, data not shown) was “did not show any inhibition”.

Marks after values point to notes of the source that are not given here.
